{"source": "patent US9517211B2", "test": "Solubility of fentanyl in softening agents", "conditions": "liquid paraffin versus polybutene", "note": "Some compounds may have been tested in ways that are not shown here."}
{"smiles": "CCC(=O)N(c1ccccc1)C1CCN(CCc2ccccc2)CC1", "values": [{"measurement": "solubility of fentanyl in liquid paraffin and polybutene", "result": "higher in polybutene"}]}
